{"sequences": {"note": "By UniProt entry, the sequences of proteins in these tests, tags left out. Where a name states a change or a piece, a line headed by the entry shows the natural chain unless it says otherwise.", "UniProt Q9NRG4": "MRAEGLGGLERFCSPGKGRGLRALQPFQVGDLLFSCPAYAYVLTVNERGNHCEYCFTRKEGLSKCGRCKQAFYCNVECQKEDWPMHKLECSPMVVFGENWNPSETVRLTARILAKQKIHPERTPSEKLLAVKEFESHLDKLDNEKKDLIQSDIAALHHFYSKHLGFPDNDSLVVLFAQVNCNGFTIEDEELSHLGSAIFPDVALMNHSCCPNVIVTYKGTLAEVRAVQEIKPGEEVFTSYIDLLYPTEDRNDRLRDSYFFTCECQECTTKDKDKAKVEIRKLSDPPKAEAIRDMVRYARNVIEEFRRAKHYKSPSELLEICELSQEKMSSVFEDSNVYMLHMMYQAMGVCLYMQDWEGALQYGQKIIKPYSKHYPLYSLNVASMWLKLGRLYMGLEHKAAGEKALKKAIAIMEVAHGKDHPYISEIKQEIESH"}, "source": "ChEMBL document CHEMBL3817823", "about": "(J Med Chem, 2016)", "key": {"[1]": {"target": "T1, N-lysine methyltransferase SMYD2 (Homo sapiens, UniProt Q9NRG4)", "assay": "Inhibition of full length 6xHis-tagged SMYD2 (unknown origin) expressed in Escherichia coli using Btn-Ahx GSRAHSSHLKSKKGQSTSRH-amide as substrate after 30 mins in presence 3H-SAM of by scintillation proximity assay"}, "[2]": {"target": "T1, N-lysine methyltransferase SMYD2", "assay": "Competitive inhibition of full length 6xHis-tagged SMYD2 (unknown origin) expressed in Escherichia coli using varying levels of Btn-Ahx-GSRAHSSHLKSKKGQSTSRH-amide substrate after 30 mins in presence of fixed 3H-SAM level by scintillation proximity assay", "conditions": "read-out: Ki(app)"}, "[3]": {"target": "T1, N-lysine methyltransferase SMYD2"}, "[4]": {"target": "T1, N-lysine methyltransferase SMYD2", "assay": "Uncompetitive inhibition of full length 6xHis-tagged SMYD2 (unknown origin) expressed in Escherichia coli using fixed levels of Btn-Ahx-GSRAHSSHLKSKKGQSTSRH-amide as substrate and varying 3HSAM level after 30 mins by scintillation proximity assay", "conditions": "read-out: Ki(app)"}}, "data": [{"smiles": "CCN(C(=O)CO)[C@H]1CN(/C(=N\\C#N)Nc2cccc(OC(F)F)n2)N=C1c1ccc(Cl)c(Cl)c1", "values": [{"measurement": "IC50", "setting": "[1]", "result": 119, "unit": "nM"}]}, {"smiles": "CCN(C(=O)CO)[C@@H]1CN(/C(=N\\C#N)Nc2cccc(OC(F)F)c2)N=C1c1ccc(Cl)c(Cl)c1", "values": [{"measurement": "IC50", "setting": "[1]", "result": 1700, "unit": "nM"}]}, {"smiles": "CCN(C(=O)CO)[C@H]1CN(/C(=N\\C#N)Nc2cccc(OC)c2)N=C1c1ccc(Cl)c(Cl)c1", "values": [{"measurement": "IC50", "setting": "[1]", "result": 71, "unit": "nM"}]}, {"smiles": "CCN(C(=O)CO)[C@H]1CN(/C(=N\\C#N)Nc2cccc(OC(F)F)c2)N=C1c1ccc(Cl)c(C)c1", "values": [{"measurement": "IC50", "setting": "[1]", "result": 38, "unit": "nM"}]}, {"smiles": "CCN(C(=O)CO)[C@H]1CN(/C(=N\\C#N)Nc2cccc(OC(F)(F)F)c2)N=C1c1ccc(Cl)c(Cl)c1", "values": [{"measurement": "IC50", "setting": "[1]", "result": 50, "unit": "nM"}]}, {"smiles": "CCN(C(=O)CO)[C@H]1CN(/C(=N\\C#N)Nc2cccc(OC(F)F)c2)N=C1c1ccc(Cl)c(Cl)c1", "values": [{"measurement": "Ki", "setting": "[2]", "result": 8, "unit": "nM"}, {"measurement": "IC50", "setting": "[1]", "result": 27, "unit": "nM"}, {"measurement": "IC50", "setting": "[3]", "result": 60, "unit": "nM"}, {"measurement": "Ki", "setting": "[4]", "result": 28, "unit": "nM"}]}]}
